{
  "source": "patent US9814761B2",
  "about": "“Compositions, methods and assays comprising amylin or amlyin analogs for abeta-peptide mediated disorders” (TRUSTEES OF BOSTON UNIVERSITY, priority 2012, dated 2017)",
  "key": {"plasma Aβ1-40 and Aβ1-42": {"system": "plasma Aβ1-40 and Aβ1-42", "assay": "pramlintide challenge in two human subjects, plasma Aβ1-40 and Aβ1-42", "format": "in vivo", "settings": "for ratio of plasma Aβ1-42/Aβ1-40: 3 hours post-injection of pramlintide 60 mcg s.c.; for plasma Aβ1-42 after the injection (course): pramlintide 60 mcg subcutaneous, one dose, 5 to 180 minutes", "procedure": "(§1) Subcutaneous injections of one dose of pramlintide (60 mcg) was performed in two subjects followed in the research registry of the BU ADC, one control and one probable Alzheimer's disease. Blood was drawn to collect plasma samples before the injection and at 5, 30, 60 and 180 minutes after the injection. Vital signs and blood glucose were monitored at these time points and prior to discharge of the subject from the facility. One hour after the injection, the subjects were offered a standard meal. Plasma Aβ1-40 and Aβ1-42 were measured (Table 2). […] The human results provided herein are encouraging, in part, because the dose of pramlintide (60 mcg) used was only moderate."}, "serum Aβ1-40 and Aβ1-42 [1]": {"system": "serum Aβ1-40 and Aβ1-42", "assay": "amylin challenge test: i.p. injection, serum Aβ1-40 and Aβ1-42 by ELISA, Tg2576 mice", "format": "in vivo", "settings": "one Tg2576 mouse (A1); one i.p. pramlintide injection", "procedure": "(§2) TgAPP2576 mice (n=5) and control mice (n=5) were used. Intraperitoneal injection of amylin (20 mg/kg) was performed, and blood was drawn and collected at pre-injection, after injection at 5 minutes, 1 hr and 24 hrs. Serum Aβ1-40 and Aβ1-42 were measured using ELISA assay. The results of serum Aβ1-40 and Aβ1-42 for each individual mouse are shown. This experiment has been repeated twice for each mouse and similar results were obtained.\n(§3) As shown at FIGS. 3A-3E, amylin injection removes Aβ from the brain into blood in APP transgenic mice. Both the Tg2576 and wild type (WT) mice were used for the amylin challenge test. FIGS. 3A-3B. Amylin (20 mg/kg) was intraperitoneally injected (i.p), and blood was drawn and collected at the time points of pre-injection (the control n=7; Tg2576 n=11), after injection 5 minutes (the control n=7; Tg2576 n=6), 1 hr (the control n=7; Tg2576 n=10) and 24 hrs (the control n=7; Tg2576 n=11). Serum Aβ1-40 and Aβ1-42 were measured by using the ELISA assays. FIGS. 3C-3E. The levels of serum Aβ1-40 and Aβ1-42 at pre-injection of amylin were treated as 1 s, and the relative fold increase after amylin injection at each time point was shown and compared with the pre-injection level by using two-way ANOVA. ***p<0.01; **p<0.05 and *p<0.10.\n(§4) FIGS. 6A-6D depict amylin injection and serum Aβ in mice. […] Serum Aβ1-40 and Aβ1-42 were measured by using the ELISA assays. […]"}, "serum Aβ1-40 and Aβ1-42 [2]": {"system": "serum Aβ1-40 and Aβ1-42", "assay": "amylin challenge test: i.p. injection, serum Aβ1-40 and Aβ1-42 by ELISA, control (wild type) mice", "format": "in vivo", "settings": "two wild type mice (N1 and N2); one i.p. pramlintide injection", "procedure": "as §2, §3, §4"}, "[3]": {"settings": "clinical use, pramlintide 30 to 300 mcg tid; NDA21-332; cited from earlier work"}, "[4]": {"assay": "vital signs and adverse events after pramlintide injection in two human subjects", "format": "in vivo", "settings": "both subjects; pramlintide 60 mcg subcutaneous, one dose", "procedure": "as §1"}, "[5]": {"settings": "both subjects (control and AD), 3 hours post-injection of pramlintide"}},
  "data": [
    {"smiles": "CC[C@H](C)[C@H](NC(=O)[C@@H]1CCCN1C(=O)CNC(=O)[C@H](Cc1ccccc1)NC(=O)[C@H](CC(N)=O)NC(=O)[C@H](CC(N)=O)NC(=O)[C@H](CO)NC(=O)[C@H](CO)NC(=O)[C@H](Cc1c[nH]cn1)NC(=O)[C@@H](NC(=O)[C@H](CC(C)C)NC(=O)[C@H](Cc1ccccc1)NC(=O)[C@H](CC(N)=O)NC(=O)[C@H](C)NC(=O)[C@H](CC(C)C)NC(=O)[C@H](CCCNC(=N)N)NC(=O)[C@H](CCC(N)=O)NC(=O)[C@@H](NC(=O)[C@H](C)NC(=O)[C@@H]1CSSC[C@H](NC(=O)[C@@H](N)CCCCN)C(=O)N[C@@H](CC(N)=O)C(=O)N[C@@H]([C@@H](C)O)C(=O)N[C@@H](C)C(=O)N[C@@H]([C@@H](C)O)C(=O)N1)[C@@H](C)O)C(C)C)C(=O)N[C@@H](CC(C)C)C(=O)N1CCC[C@H]1C(=O)N1CCC[C@H]1C(=O)N[C@H](C(=O)N[C@@H](CC(N)=O)C(=O)N[C@H](C(=O)NCC(=O)N[C@@H](CO)C(=O)N[C@@H](CC(N)=O)C(=O)N[C@H](C(=O)N[C@@H](Cc1ccc(O)cc1)C(N)=O)[C@@H](C)O)C(C)C)[C@@H](C)O", "note": "[pramlintide]", "values": [
      {"measurement": "ratio of plasma Aβ1-42/Aβ1-40", "setting": "plasma Aβ1-40 and Aβ1-42; AD subject", "result": "significant increase"},
      {"measurement": "plasma Aβ1-42 after the injection (course)", "setting": "plasma Aβ1-40 and Aβ1-42; AD subject", "result": "increased until 30 minutes and then decreased"},
      {"measurement": "level of plasma Aβ1-40", "setting": "plasma Aβ1-40 and Aβ1-42; [5]", "result": "reduced significantly"},
      {"measurement": "level of plasma Aβ1-42", "setting": "plasma Aβ1-40 and Aβ1-42; [5]", "result": "reduced significantly"},
      {"measurement": "ratio of plasma Aβ1-42/Aβ1-40", "setting": "plasma Aβ1-40 and Aβ1-42; control subject", "result": "decrease"},
      {"measurement": "plasma Aβ1-42 after the injection (course)", "setting": "plasma Aβ1-40 and Aβ1-42; control subject", "result": "decreased at all the time points"},
      {"measurement": "serum Aβ40 level before and after the injection", "setting": "serum Aβ1-40 and Aβ1-42 [1]", "result": "induced the surge"},
      {"measurement": "serum Aβ40 level before and after the injection", "setting": "serum Aβ1-40 and Aβ1-42 [2]", "result": "not in those wild type mice"},
      {"measurement": "postprandial plasma glucose concentrations", "setting": "[3]", "result": "reduce postprandial plasma glucose concentrations safely"},
      {"measurement": "adverse events during the trial or over the next 48 hours", "setting": "[4]", "result": "did not have nausea, vomiting, abdominal pain, headache, dizziness and itching"},
      {"measurement": "vital signs during the trial", "setting": "[4]", "result": "stable vital signs"}
    ]}
  ]
}
